# Screening data as filed in PubChem BioAssay.
# GIV-Gai inh – inhibitors of GIV GBA-motif binding to rat Galpha-i3; P08753; Galpha-i3/FITC-GIV peptide fluorescence polarization, 90 min; stronger effect = lower value; scaled: aluminum fluoride 0%, vehicle 100%; percent of control (FP), % (no concentration beside the values); actives 0.42% (n = 210,000); AID 1224905;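 active means replicate mean at 85% of control or lower, very high polarization wells dropped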;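 further: wells of about 15 µL received 100 nL stock; the first replicate is given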
# HCMV UL50-53 inh – inhibitors of HCMV UL50-UL53 nuclear egress complex interaction | hit rate 0.15% among 190,000 | HTRF UL50-UL53 interaction, normalized percent inhibition | inhibition, % (no concentration beside the values); in the data active = inhibition above about 27%, passing the limit was not always enough
# GIV Gai FP conf – GIV-Galpha-i3 inhibition, FP confirmation; AID 1259350; shares compounds with GIV-Gai inh; hit rate 38% among 580; FITC-GIV peptide binding to Galphai3, fluorescence polarization; hits give low values; fluorescence polarization, mP at 100 µM;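 active = inhibition score of 15 or more, meaning 100 minus mean polarization as percent of control over three replicates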;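 also: lower mP means peptide displaced from Galphai3 so more inhibition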
# GIV-Gai AS conf – confirmation of inhibitors of GIV binding to human Galpha-i3. shares compounds with GIV-Gai inh. AlphaScreen Galphai3-GIV binding, purified proteins, 90 min; hits give low values. AlphaScreen counts at 100 µM. hit rate 39% among 580. AID 1259351;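 active = inhibition score at or above a set limit, where the score is 100 minus the three-replicate mean percent of control signal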
# The depositor's hits bear a star; · = no result. This is a sample that favours compounds with a hit; in the whole collection about 0.43% have one here.
SMILES,GIV-Gai inh,HCMV UL50-53 inh,others
Cn1c(=O)[nH]c2nncnc2c1=O,107,78*,
COc1cc(C=C2C(=O)N(C)C(=O)N(C)C2=O)ccc1OS(=O)(=O)c1ccccc1,104,62*,
CN1C(=O)C(=Cc2ccccc2OS(=O)(=O)c2ccccc2)C(=O)N(C)C1=O,106,-6,
CN1/C(=C\P(=S)(N2CCOCC2)N2CCOCC2)C(C)(C)c2ccccc21,·,-19,
C1=C(c2cccnc2)Nc2ncnn2C1c1cccs1 (configuration not stated),-74*,-73,
O=C1CC(=O)N(CCC2=CCCCC2)C(=O)N1,131,6,
O=C1NC(=O)C(=Cc2cn(Cc3ccccc3)c3ccccc23)C(=O)N1,-5.9*,·,
O=Cc1cn(Cc2ccc(Cl)cc2)c2ccccc12,·,-8,
CCN=Cc1c(O)n(C)c(=O)n(C)c1=O,89,-10,
CNC1(c2nnnn2-c2ccc(Cl)cc2)CCCCC1,106,·,
CCN1CCN(Cc2ccoc2)CC1,106,-2,
Cc1cc(C)cc(OCC(=O)N2CCN(Cc3ccccc3)CC2)c1,·,4,
N#Cc1c(N)[n+]([O-])c2ccccc2[n+]1[O-],-31*,-132,
O=C(O)c1ccc2c(c1)C1C(Cl)C(Sc3ccccc3[N+](=O)[O-])CC1C(c1ccc(F)cc1)N2 (configuration not stated),107,·,
CCOC(=O)C1C2NC(=S)NC1(C)Oc1ccccc12 (configuration not stated),100,-33,
CCOC(=O)c1cc(CC)sc1/N=C/C1C(=O)NC(=S)NC1=O,-36*,·,
COc1ccc(C2=NCC(=O)N(C(C)C(=O)Nc3ccc(F)cc3)c3sc4c(c32)CCCC4)cc1 (configuration not stated),104,-29,
N#CC(C#N)=Cc1ccc(O)cc1,·,-13,
CCN(CC)c1ccc(C=C(C#N)C#N)cc1,51*,-56,
Cc1sc(-n2c(C)cc(C=C3C(=O)NC(=S)NC3=O)c2C)c(C#N)c1C,113,3,

# Quoted from the results shown for reference:
SMILES,GIV-Gai inh,HCMV UL50-53 inh,others
CCOC(=O)C1C2NC(=S)NC1(C)Oc1ccccc12 (configuration not stated),100,-33,
CCOC(=O)c1cc(CC)sc1/N=C/C1C(=O)NC(=S)NC1=O,-36*,·,
COc1ccc(C2=NCC(=O)N(C(C)C(=O)Nc3ccc(F)cc3)c3sc4c(c32)CCCC4)cc1 (configuration not stated),104,-29,
N#CC(C#N)=Cc1ccc(O)cc1,·,-13,
CCN(CC)c1ccc(C=C(C#N)C#N)cc1,51*,-56,
Cc1sc(-n2c(C)cc(C=C3C(=O)NC(=S)NC3=O)c2C)c(C#N)c1C,113,3,

# Next results
SMILES,GIV-Gai inh,HCMV UL50-53 inh,others
O=C(CSC1=NCCS1)Nc1ccc(Br)cc1C(=O)c1ccccc1Cl,·,-11,
CC(=O)N1c2ccc(C)cc2C2CN(C)CCC21 (configuration not stated),107,·,
Cc1ccc2c(c1)C1CN(C)CCC1N2 (configuration not stated),84*,13,
COc1ccc(CN(C)CCc2ccc(OC)c(OC)c2)cc1,·,6,
COc1ccc(-c2cn3c(n2)sc2cc(C(=O)N4CCC5(CC4)OCCO5)ccc23)cc1,96,-22,
Cn1c(CCCC(=O)O)nc2cc(N(CCCl)CCCl)ccc21,97,67*,
CNC1CCC(C)CC1 (configuration not stated),·,-13,
CC(C)(C)c1ccc(OCCOc2ccccc2C=C2C(=O)NC(=O)NC2=O)cc1,91,65*,
O=C1NC(=O)C(=Cc2ccccc2OCCOc2ccc([N+](=O)[O-])cc2)C(=O)N1,104,-2,
COC(=O)C1CNCCN1c1ccccc1 (configuration not stated),·,-14,
COc1cc(C=C2C(=O)NC(=O)NC2=O)cc(Cl)c1OCCOc1ccccc1,104,13,
CCOc1cc(C=C2C(=O)NC(=O)NC2=O)cc(Cl)c1O,72*,11,GIV Gai FP conf=62;GIV-Gai AS conf=5092*
Nc1ccc(CCN2CCCCCC2)cc1,105,-21,
O=C1NC(=S)N(c2ccc(Br)cc2)C(=O)/C1=C\c1ccc(-c2ccccc2C(=O)O)o1,112,-2,
CN1C(=O)/C(=C/c2ccc(I)o2)C(=O)NC1=S,46*,-42,GIV Gai FP conf=56*;GIV-Gai AS conf=812*
CC(N)Cc1ccco1 (configuration not stated),102,-8,
CN(N=O)c1ccc(O)c(O)c1,37*,102*,GIV Gai FP conf=42*;GIV-Gai AS conf=3178*
Cc1ccc(NC2=NC(C)(C)CS2)cc1,·,4,
CC[C@@]1(O)C(=O)OCc2c1cc1n(c2=O)Cc2cc3c(O)cccc3nc2-1,77*,-78,GIV Gai FP conf=61*;GIV-Gai AS conf=15350
CC[C@@]1(O)C(=O)OCc2c1cc1n(c2=O)Cc2cc3ccccc3nc2-1,98,-83,
O=C1NC(=O)C(=Cc2ccc(-c3cc(C(=O)O)ccc3Cl)o2)C(=O)N1,59*,-19,GIV Gai FP conf=60*;GIV-Gai AS conf=4991*
COc1ccc(N2C(=O)/C(=C/c3ccc(-c4cc(C(=O)O)ccc4Cl)o3)C(=O)NC2=S)cc1,108,-1,
Cc1cc(O)c(C(=O)Nc2ccc(Cl)c(Cl)c2)c(=O)n1CC1CCCO1 (configuration not stated),104,-24,
COc1cc(CN2CCN(C(=O)Cc3ccccc3)CC2)cc(OC)c1OC,98,-8,
COc1cc(C(c2c(C)[nH]n(-c3ccccc3)c2=O)c2c(C)[nH]n(-c3ccccc3)c2=O)cc(OC)c1OC,79*,·,GIV Gai FP conf=53*;GIV-Gai AS conf=19198*
CCCCCCCC1C(=O)NC(=O)NC1=O,105,-19,
CCCCCCCCCCCCCCCC(=O)OC[C@H](COP(=O)([O-])OCC[N+](C)(C)C)OC(=O)CCCC=O,·,-1,
CCN(CC)C(=O)c1sc2nc3c(cc2c1N)CN(C)CC3,102,-76,
C=CCN1C(=O)NC(=O)/C(=C/c2ccco2)C1=O,119,·,
C=CCN1C(=O)/C(=C/c2ccco2)C(=O)NC1=S,46*,-2,GIV Gai FP conf=52*;GIV-Gai AS conf=936*
COc1ccccc1N1C(=O)NC(=O)/C(=C\C=C\c2ccco2)C1=O,104,·,
O=C1NC(=O)N(Cc2ccco2)C(=O)/C1=C\c1ccco1,61*,14,GIV Gai FP conf=46*;GIV-Gai AS conf=1412*
OC1(c2cccc(F)c2)CC2CCC(C1)N2Cc1nnnn1CCc1ccccc1 (configuration not stated),104,-14,
CCSc1nc2ccccc2c(=O)n1-c1cccc(OC)c1,102,·,
NCCc1cc(O)c(O)cc1O,·,-22,
NC(Cc1cc(O)c(O)cc1O)C(=O)O (configuration not stated),71*,76*,GIV Gai FP conf=34*;GIV-Gai AS conf=2389*
CCc1ccc(-n2c(N3CCC(C)CC3)nc3ccccc3c2=O)cc1,99,-9,
CCn1cc(C(=O)c2ccccc2)c2ccccc21,100,5,
CCn1cc(C=C2C(=O)NC(=O)NC2=O)c2ccccc21,94,-68,GIV Gai FP conf=19*;GIV-Gai AS conf=15779*
Cc1cc(C(=O)O)nn1C(C)(C)C,107,-3,
